Results reported in patent US9539323B2, “Methods and compositions for malic enzyme 2 (ME2) as a target for cancer therapy” (Beth Israel Deaconess Medical Center, Inc., priority 2010, dated 2017).

Test system: K562 cells
Test: Cell death assessed by flow cytometry
Assay type: cell-based, human
Details: K562, 0.1 mM AOA plus 2 mM α-KG, 48 h
Experimental: A: Cells were treated with different concentrations of amino-oxyacetate and expression levels of the erythroid marker glycophorin A (GPA) on the surface of K562 cells were assessed using a mouse FITC-conjugated anti-human glycophorin A antibody. Each histogram is representative of three experiments. B: K562 cells with or without ME2 knockdown were incubated with different concentrations of AOA for 72 h. Cell death was assessed by flow cytometry. Top: pLKO; Bottom: shME2-3. […] C: Cells were treated with different concentrations of malate and expression levels of the erythroid marker glycophorin A on the surface of K562 cells were assessed using a mouse FITC-conjugated anti-human glycophorin A antibody. Each histogram is representative of three experiments.
K562 cells with or without ME2 knockdown were incubated with 0.1 mM AOA plus 2 mM α-KG for 48 h. Cell death was assessed by flow cytometry. A: pLKO K562 cells without any treatment. B: pLKO K562 cells treated with 0.1 mM AOA for 48 h. C: pLKO K562 cells treated with 0.1 mM AOA combined with 2 mM α-KG.

Substance: α-ketoglutarate
- rescue of AOA mediated cell death: could rescue AOA mediated cell death
